pKi: −log10 of the molar value.

Chains of the proteins cited; added tags and fusions are not shown.
UniProt Q9H3N8, whole entry: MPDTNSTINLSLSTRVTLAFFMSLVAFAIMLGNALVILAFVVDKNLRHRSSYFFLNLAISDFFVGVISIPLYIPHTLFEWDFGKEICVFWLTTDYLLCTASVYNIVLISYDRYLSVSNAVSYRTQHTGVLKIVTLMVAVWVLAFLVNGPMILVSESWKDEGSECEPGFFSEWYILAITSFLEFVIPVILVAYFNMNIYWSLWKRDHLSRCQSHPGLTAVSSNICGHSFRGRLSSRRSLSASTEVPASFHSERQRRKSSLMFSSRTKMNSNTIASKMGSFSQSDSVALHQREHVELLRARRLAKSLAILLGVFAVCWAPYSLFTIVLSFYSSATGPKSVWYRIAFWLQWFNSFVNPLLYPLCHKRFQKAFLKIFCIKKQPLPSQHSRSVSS

The test concerns the target human histamine H4 receptor (Homo sapiens, UniProt Q9H3N8). The experiment in a line: Binding Assay on Recombinant Human Histamine H4 Receptor. Particulars: read-out: H4 Binding Ki; competition binding vs 3H-histamine (5 nM, KD 5 nM), membranes of SK-N-MC or COS7 cells transfected with human H4R; Cheng-Prusoff; average of results obtained.
What is called pKi is −log10 of the Ki, conventionally taken in molar units. On to `CN1CCN(c2cc(-c3cccs3)nc(Cl)n2)CC1`, for which the pKi is 6.76.
In the case of `CN1CCN(c2cc(-c3cccs3)ncn2)CC1`, the pKi was 6.88.
The value for `CN1CCN(c2ccnc(-c3ccc4ccccc4c3)c2)CC1` [compound 89] was 5.70; that for `CN1CCN(c2ccnc(-c3sccc3Cl)c2)CC1` [compound 148] was 6.82.
Regarding `CN1CCN(c2nccc(-c3cc(Cl)cs3)n2)CC1` [compound 149], the pKi was 6.56.
With `CN1CCN(c2cc(-c3sccc3Cl)nc(Cl)n2)CC1` [compound 150], the pKi was 7.03.
